From PubChem
Only some compounds are listed: those with a hit (about 1.3% of all), similar ones and a draw of the others.
PINK1 modulator: changes PINK1 expression; Potency, µM (doses to about 76.6 µM), for inactives: top-dose activation (PINK1 increase), actives largely listed as activators; PINK1 immunofluorescence, high-content cytometry, 24 h; actives 0.2% (n = 410,000); active = well fitted activation curve with a large enough effect; inconclusive = small, poorly fitted or top-dose-only effect; cell line not stated here; also: potency is read from the fitted curve at half-maximal effect; % of control where 0% means no effect; nearly all actives have a fitted effect of over 65% in size
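Cells are seeded, rested 12 hours, then given compound at five concentrations or DMSO for 24 hours. After fixation, blocking and antibody staining, PINK1 amount and mitochondrial localization are scored; CCCP serves as control.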
ERG-DNA inh: ERG Ets/DNA interaction inhibition | fluorescence polarization, His-ERG Ets domain / labelled DNA | Potency, µM (highest dose often 76.9 µM), for the others: at the top dose FP activity, negative = inhibition, hits mostly inhibitors | AID 624246 | P11308 | actives 0.028% (n = 370,000); active = well fitted inhibition curve with a large enough effect in the polarisation, with a control signal flat; inconclusive = small, poorly fitted or top-dose-only effect, or effect the other way, or a change in a side signal; inactive = no such curve, though single readings can be large or run the other way; the % refers to the polarisation;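 also: polarization taken with two DNA probes labelled with fluorescein and Texas red; potency is read from the fitted curve at half-maximal effect; % of control where 0% means no effect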
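His-tagged ERG Ets domain (1 uM in the protein solution; 300mM KCl, 50mM Tris-HCl, 1mM EDTA, 1mM DTT, pH 7.5) received compound, then a probe mix of 5 nM fluorescein-DNA and 100nM Texas-615-DNA. Fluorescence polarization was read for both dyes.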
miR-21 reporter: miR-21 reporter, rising signal | HeLa miR-21 FLuc reporter, luciferase, 48 h | Potency, µM (top dose mostly 38.3 µM), inactives show at the highest dose reporter change, positive = more light | 340,000 tested, under 10 active | AID 2288; active = well fitted rising curve with a large enough effect; inconclusive = small, poorly fitted or top-dose-only effect; inactive = no such curve, though single readings can be large or run the other way;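 note: % of control where 0% means no effect; miR-21 action dims this reporter so a rising signal means less miR-21 action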
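Using DMEM plus 10% FBS, HeLa miR-21-FLuc cells are incubated with test compounds (final up to about 40uM) for 48 hours; firefly luciferase signal is then imaged following reagent-mediated lysis.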
ALOX12 inh: ALOX12 (human) lipoxygenase inhibition. P18054. purified 12hLO, xylenol orange hydroperoxide absorbance. Potency, µM (titrated, usually from 108 µM), without a hit: at the highest dose activity change, negative = inhibition, most hits filed as inhibitors. actives 1.1% (n = 580,000); also: potency is read from the fitted curve at half-maximal effect; % is scaled to controls: 0 for no effect and ±100 for the full control effect
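Hydroperoxide product was detected by ferrous iron/xylenol orange as the 573 to 405 nm absorbance ratio. Arachidonic acid at 40 uM (final) was turned over for 30 min at room temperature by 150 nM human 12hLO, pH 7.0 Hepes buffer, after 15 min compound preincubation.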
Giardia kill: Giardia lamblia killing. activity change, % at 7.66 µM, hits read low. actives 0.15% (n = 340,000). AID 540267. Giardia lamblia trophozoite viability; in the data active = activity change below about -80%; inconclusive = between about -30% and that limit;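 also: parasites exposed to compound for two days anaerobically before the ATP read; % is scaled to controls: 0 for no effect and ±100 for the full control effect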
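Viability, read as ATP luminescence: trophozoites at 100 cells/well, compound added, 48 hrs anaerobic at 37 deg C, then 15-30 min room-temperature development before reading.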
PTHR1 agonist: PTHR1 (human) receptor agonism; HEK293 GP2 PTHR1 cells, GloSensor cAMP luminescence, 1 h; Potency, µM (titrated, usually from 115 µM), inactives show at the top dose activation, most hits filed as activators; actives 0.075% (n = 410,000); AID 743266; also: potency is read from the fitted curve at half-maximal effect; nearly all actives have a fitted effect of over 55% in size
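HEK-293-derived GP2 cells expressing PTHR1 and a GloSensor cAMP reporter, 3,000/well, plated overnight, given luciferin plus IBMX (each 0.5 mM as added) for 1 h at 37 °C, then compound for 1 h at 37 °C. Luminescence was read after 15 min at room temperature.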
The depositor's hits bear a star; [ ] = another dose, or the depositor's remark. Unless noted, calls follow the shape of the dose curve; as a rule, active = well fitted curve in the direction sought with a large enough effect; inconclusive = small, poorly fitted or top-dose-only effect, or another doubt; inactive = no such curve, though single readings can be large; an effect the other way counts as inactive or inconclusive.

Screening CC(=O)C1=C(O)C(=O)N(CCc2c[nH]c3ccccc23)C1c1ccc(O)cc1 (stereo not given) returned PINK1 modulator 1%, ERG-DNA inh -6%, miR-21 reporter -4%, ALOX12 inh 8.9µM*, Giardia kill -14 and PTHR1 agonist inactive.
`COCCCN1C(=O)C(O)=C(C(C)=O)C1c1cccc(F)c1` (stereo not given) gave PINK1 modulator 3%, ERG-DNA inh -8%, miR-21 reporter -7%, ALOX12 inh 7.9µM*, Giardia kill 33 and PTHR1 agonist inactive.
For COc1ccc(C2C(C(C)=O)=C(O)C(=O)N2CCc2c[nH]c3ccccc23)cc1OC (stereo not given) the results were PINK1 modulator 2%, ERG-DNA inh -5%, miR-21 reporter -4%, ALOX12 inh inconclusive, Giardia kill -14 and PTHR1 agonist inactive.
COc1cccc(C2C(C(C)=O)=C(O)C(=O)N2CCc2c[nH]c3ccccc23)c1 (stereo not given) was read as PINK1 modulator 0%, ERG-DNA inh -4%, miR-21 reporter -11%, ALOX12 inh 5µM*, Giardia kill 12 and PTHR1 agonist inactive.
For CCCCN1C(=O)C(O)=C(C(C)=O)C1c1ccccc1 (stereo not given) the results were PINK1 modulator 2%, ERG-DNA inh 3%, miR-21 reporter 1%, Giardia kill 13 and PTHR1 agonist -8%[57.5 µM].
Screening Cc1cc(C)[n+](C)c2ccccc12 returned PINK1 modulator 2%.
Screening Cc1c2ccccc2cc(Cc2ccccc2)[n+]1C returned PINK1 modulator 5%, ERG-DNA inh 14%, miR-21 reporter 15%, ALOX12 inh 5.6µM*, Giardia kill 18 and PTHR1 agonist inactive.
COC(=O)C1=C(C)N(Cc2ccc(C)cc2)C(=O)/C1=C\c1ccc(O)c(OC)c1 was read as PINK1 modulator 27%, ERG-DNA inh 1%, miR-21 reporter -6%, ALOX12 inh 28µM*, Giardia kill 2 and PTHR1 agonist -26%.
`Cc1cc(N2CCC(C)CC2)nc(NCc2ccccc2)n1` gave PINK1 modulator 35µM*, ERG-DNA inh 0%, miR-21 reporter 28%, ALOX12 inh inconclusive, Giardia kill -26 and PTHR1 agonist inactive.
Cc1cc(N2CCC(C)CC2)nc(-c2ccccc2O)n1 was read as PINK1 modulator 3%, ERG-DNA inh 6%, miR-21 reporter -2%, ALOX12 inh 2%, Giardia kill -14 and PTHR1 agonist -40%.
`O=C(O)c1ccc(N/N=C/c2cn(Cc3ccc(F)cc3)c3ccccc23)cc1` gave PINK1 modulator 0%, ERG-DNA inh 0%, miR-21 reporter -42%, ALOX12 inh inconclusive, Giardia kill 1 and PTHR1 agonist -9%.
For O=[N+]([O-])/C=C/c1cn(Cc2ccc(F)cc2)c2ccccc12 the results were PINK1 modulator 4%[38.3 µM], ERG-DNA inh -1%, miR-21 reporter 27%, ALOX12 inh 3.5µM*, Giardia kill -7 and PTHR1 agonist -33%.
Screening CNC(=S)N/N=C/c1c(C)cccc1Cl returned PINK1 modulator 2%, ERG-DNA inh 0%, miR-21 reporter -1%, ALOX12 inh inconclusive, Giardia kill 0 and PTHR1 agonist -15%.
`CCNC(=S)N/N=C/c1cn(Cc2ccc(F)cc2)c2ccccc12` gave PINK1 modulator 6%, ERG-DNA inh -4%, miR-21 reporter 12%, ALOX12 inh 40µM*, Giardia kill -12 and PTHR1 agonist inactive.
For CCNC(=S)N/N=C/c1c(F)cccc1F the results were ALOX12 inh 4%.
For CNC(=S)N/N=C/c1cn(Cc2c(F)cccc2Cl)c2ccccc12 the results were PINK1 modulator 3%, ERG-DNA inh 6%, miR-21 reporter 29%, ALOX12 inh 25µM*, Giardia kill 15 and PTHR1 agonist inactive.
Screening CCNC(=S)N/N=C/c1cn(Cc2ccccc2F)c2ccccc12 returned PINK1 modulator 3%, ERG-DNA inh -1%, miR-21 reporter -2%, ALOX12 inh 40µM*, Giardia kill 8 and PTHR1 agonist inactive.
OCc1nnn(-c2cccc(C(F)(F)F)c2)c1CO was read as PINK1 modulator 1%, ERG-DNA inh -6%, miR-21 reporter 1%, ALOX12 inh -5%, Giardia kill 6 and PTHR1 agonist inactive.
Screening O=[N+]([O-])c1cccc(SSc2cccc([N+](=O)[O-])c2)c1 returned PINK1 modulator 2%, ERG-DNA inh -3%, ALOX12 inh 2.5µM*, Giardia kill -6 and PTHR1 agonist inactive.
For CCC1(N2CCN(S(=O)(=O)c3ccc4c(c3)CCCC4)CC2)CCN(C(=O)NC)C1 (stereo not given) the results were ALOX12 inh 32µM*.

Looked up by compound from the entries so far, 3 records:
For CNC(=S)N/N=C/c1cn(Cc2c(F)cccc2Cl)c2ccccc12 the results were PINK1 modulator 3%, ERG-DNA inh 6%, miR-21 reporter 29%, ALOX12 inh 25µM*, Giardia kill 15 and PTHR1 agonist inactive.
Screening Cc1cc(C)[n+](C)c2ccccc12 returned PINK1 modulator 2%.
`O=C(O)c1ccc(N/N=C/c2cn(Cc3ccc(F)cc3)c3ccccc23)cc1` gave PINK1 modulator 0%, ERG-DNA inh 0%, miR-21 reporter -42%, ALOX12 inh inconclusive, Giardia kill 1 and PTHR1 agonist -9%.

Further entries.
`CCN1CCS/C1=C/C=C/C1=[N+](CC)CCS1` gave PINK1 modulator 16µM*, ERG-DNA inh -4%, miR-21 reporter inconclusive, Giardia kill 13 and PTHR1 agonist -81%.
CCN1CCS/C1=C\C=C\C1=[N+](CC)CCS1 was read as PINK1 modulator 14µM*, ERG-DNA inh 15%, miR-21 reporter inconclusive, ALOX12 inh -5%, Giardia kill 12 and PTHR1 agonist -31%.
For O=C(O)C1CCN(C(=O)NC2CCCCC2)CC1 the results were PINK1 modulator 2%, ERG-DNA inh -4%, miR-21 reporter -2%, ALOX12 inh -1%, Giardia kill 10 and PTHR1 agonist inactive.
`CCOC(=O)CN1C(=O)COc2ccc(C(C)(C)C)cc21` gave PINK1 modulator 4%, ERG-DNA inh 12%, miR-21 reporter 0%, ALOX12 inh -8%, Giardia kill 10 and PTHR1 agonist inactive.
`Cc1c(C2=CCN(S(=O)(=O)c3ccc(CC(C)C)cc3)CC2)c2ccccc2n1CC(=O)N1CCCC1` gave PINK1 modulator 1%, ERG-DNA inh inconclusive, miR-21 reporter 0%, ALOX12 inh 1% and PTHR1 agonist 45µM*.
Screening Cc1c(C2=CCN(S(=O)(=O)c3ccc(Br)cc3)CC2)c2ccccc2n1CC(=O)N1CCCC1 returned PINK1 modulator 2%, ERG-DNA inh 2%, miR-21 reporter -1%, ALOX12 inh -17% and PTHR1 agonist -35%.
CCCc1ccc(-c2cc(C(=O)N/N=C/c3ccc([N+](=O)[O-])o3)c3ccccc3n2)cc1 was read as PINK1 modulator 2%, ERG-DNA inh 0%, miR-21 reporter 22%, ALOX12 inh 5%, Giardia kill -94* and PTHR1 agonist -8%[57.5 µM].
